From PubChem BioAssay AID1645887 (National Center for Advancing Translational Sciences (NCATS), 2021)
Several values for one entry are separate records, joined by “and”; a condition that tells them apart may be missing. Identical values can stand only once. The entries are a selection whose mix differs from that of the whole data set. Activity calls are given as the source filed them. Calls come from the whole dose curve; as a rule, active = well fitted activation curve with a large enough effect; inconclusive = small, poorly fitted or top-dose-only effect, or another doubt; inactive = no such curve, though single readings can be large or run the other way.
% is set by controls: 0 for no effect and ±100 for the full control effect.
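Note: exchange makes BODIPY-GDP fluorescence drop when released from Rap1B; series mostly up to about 150 µM.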

Chains of the proteins cited; added tags and fusions are not shown. Lines headed by an entry give the natural chain unless they say otherwise; changes in a name come on top.
UniProt Q8WZA2: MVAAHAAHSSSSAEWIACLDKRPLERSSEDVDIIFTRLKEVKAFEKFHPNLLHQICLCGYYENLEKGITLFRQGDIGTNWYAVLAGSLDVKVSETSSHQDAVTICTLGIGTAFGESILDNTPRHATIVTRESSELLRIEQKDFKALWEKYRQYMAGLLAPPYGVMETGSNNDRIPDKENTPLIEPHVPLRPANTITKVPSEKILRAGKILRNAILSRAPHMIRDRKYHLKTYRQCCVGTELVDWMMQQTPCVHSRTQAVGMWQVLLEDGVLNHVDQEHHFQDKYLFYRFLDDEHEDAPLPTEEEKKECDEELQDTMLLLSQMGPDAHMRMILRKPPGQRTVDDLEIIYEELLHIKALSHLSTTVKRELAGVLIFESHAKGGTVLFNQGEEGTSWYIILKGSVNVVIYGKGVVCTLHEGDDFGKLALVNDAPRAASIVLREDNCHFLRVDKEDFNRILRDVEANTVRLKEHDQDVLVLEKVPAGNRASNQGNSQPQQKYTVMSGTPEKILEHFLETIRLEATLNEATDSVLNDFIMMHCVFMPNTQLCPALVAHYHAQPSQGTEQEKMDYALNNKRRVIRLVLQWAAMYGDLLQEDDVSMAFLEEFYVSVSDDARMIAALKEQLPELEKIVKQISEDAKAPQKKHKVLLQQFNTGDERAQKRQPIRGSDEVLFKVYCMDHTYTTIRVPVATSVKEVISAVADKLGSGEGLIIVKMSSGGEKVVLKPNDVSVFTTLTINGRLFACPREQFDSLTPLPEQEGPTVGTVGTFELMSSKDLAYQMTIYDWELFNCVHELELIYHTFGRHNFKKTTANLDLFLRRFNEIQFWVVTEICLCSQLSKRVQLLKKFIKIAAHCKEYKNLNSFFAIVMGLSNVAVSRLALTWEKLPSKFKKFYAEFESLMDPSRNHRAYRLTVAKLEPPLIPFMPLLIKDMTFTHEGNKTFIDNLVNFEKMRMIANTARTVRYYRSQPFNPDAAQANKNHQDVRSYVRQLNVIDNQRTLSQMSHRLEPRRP

These compounds were tested against Rap guanine nucleotide exchange factor 4 (Homo sapiens) (UniProt Q8WZA2) (assay: Validation qHTS for agonist of cAMP-regulated guanine nucleotide exchange factor 4 (EPAC2)). Details: EPAC2 Rap1B BODIPY-GDP exchange, fluorescence; active compounds read high.
From the text: Principle Investigator: Xiaodong Cheng Ph.D.
The University of Texas Medical Branch, […], TX
In multi-cellular eukaryotic organisms, the effects of cAMP are transduced by two ubiquitously-expressed intracellular cAMP receptors, the classic protein kinase A/cAMP-dependent protein kinase (PKA/cAPK) and the more recently discovered exchange protein directly activated by cAMP/cAMP-regulated guanine nucleotide exchange factor (EPAC/cAMP-GEF). Both PKA and EPAC are ubiquitously expressed in all tissues, and an increase in intracellular cAMP levels will lead to the activation of both PKA and EPAC. Therefore, careful dissections of the individual role and relative contribution of EPAC and PKA within the overall cAMP signaling in various model systems are critical for further elucidating the mechanism of cAMP signaling. To date no EPAC-specific antagonists and agonist, as well as isoform-specific agonists have been reported, and developing EPAC-specific pharmacological probes to determine the physiological functions that EPAC play in the overall cAMP-mediated signaling remains a major challenge within the research field. Furthermore, identified regulators of EPAC may lead to new mechanism-based therapeutic strategies specifically targeting the EPAC / cAMP-signaling components as EPAC has been implicated to play important roles in major human pathological conditions such as diabetes, heart disease, and cancer.
This qHTS will be used to screen the Molecular Libraries Small Molecule Repository (MLSMR) as a concentration-titration series using the NCGC unique quantitative screening (qHTS) platform to find activators for EPAC1. In addition, this assay will also be used as a counterscreen for the EPAC2 qHTS. This fluorescent based assay is developed and validated for EPAC1 that measures exchange using EPAC effector Rap1 complex with BODIPY-GDP, a GDP analog with a tethered fluorophores. Activators are identified by monitoring the change in fluorescence signal as the exchanged free BODIPY-GDP has a reduced fluorescence compared to Rap1-bound BODIPY-GDP. Increase in signal (activation) is the desired outcome for the EPAC1 agonist while no activity in this assay is desired for the EPAC2 agonist counterscreen.
[1] de Rooij, J., Zwartkruis, F. J., Verheijen, M. H., Cool, R. H., Nijman, S. M., Wittinghofer, A., and Bos, J.L. (1998) Nature 396, 474-477.
Briefly, three uL of reagents (100 nM EPAC2, 250 nM RAP1B-BODIPY-GDP, 50 uM GDP) were dispensed into a 1536-well Greiner black solid-bottom medium binding assay plate. Controls and test compounds (23 nL) were transferred to the plate via a Kalypsys pin tool equipped with a 1536-pin array. The plates were centrifuged at 1,000 rpm for 15 seconds followed by 5 minute incubation at room temperature. The assay plates were read at 5 minute intervals for 30 minutes in the ViewLux plate reader using 480nm excitation and 540nm emission filters. The results were normalized to the agonist positive control of 6.5 mM cAMP.
For `CN(C(=O)Cc1ccccc1)[C@H]1CC[C@@]2(CCCO2)C[C@@H]1N1CCCC1`, the activation was inactive: 5.37%.
In the case of `Cc1cc([N+](=O)[O-])cc([N+](=O)[O-])c1O`, the activation is reported as inactive: -5.48%.
For `COc1cccc([N+](=O)[O-])c1[N+](=O)[O-]`, the activation was inactive: -12.9%.
For `O=[N+]([O-])c1cc([N+](=O)[O-])c2nc[nH]c2c1`, the activation was inactive: -19.2%.
In the case of `O=C(OC1CN2CCC1CC2)c1ccccc1` (configuration not stated), the activation is reported as inactive: 6.98%.
`CN(C(=O)Cc1ccc(Cl)c(Cl)c1)[C@@H]1CCCC[C@@H]1N1CCCC1` was tested, and the activation was inactive: 5.13%.
For `Nc1c(O)cc([N+](=O)[O-])cc1[N+](=O)[O-]`, the activation was inactive: -28.8%.
`CCNC(C)Cc1ccc2c(c1)OCO2` (configuration not stated) was tested, and the activation was inactive: -11.8%.
With `COc1cc([N+](=O)[O-])c([N+](=O)[O-])cc1OC` the activation was inactive: -26.8%.
In the case of `CC(=O)C1=CCCC2CCC1N2` (configuration not stated), the activation is reported as inactive: 4.08%.
For `Cc1cc(C=O)ccc1N(CCCl)CCCl`, the activation was inactive: -15.4%.
`CN(C(=O)Cc1ccc(Cl)c(Cl)c1)[C@H]1CC[C@@]2(CCCO2)C[C@@H]1N1CCCC1` was tested, and the activation was inactive: 1.35%.
With `CN(C(=O)Cc1ccccc1)[C@@H]1CC[C@]2(CCCO2)C[C@H]1N1CCCC1` the activation was inactive: 16.6%.
`NC(=O)Nc1ccc([As](=O)(O)O)cc1` was tested, and the activation was inactive: -14.2%.
For `CN(C(=O)Cc1ccc(Cl)c(Cl)c1)[C@@H]1CC[C@]2(CCCO2)C[C@H]1N1CCCC1`, the activation was inactive: -17%.
With `CN(CCCl)Cc1cc(Cl)c(NC2=NCCN2)c(Cl)c1` the activation was inactive: -3.61% and inactive: -16.4%.
`CN(C(=O)Cc1ccc(Cl)c(Cl)c1)[C@@H]1CCCC[C@H]1N1CCCC1` was tested, and the activation was inactive: 6.19%.
